Data on 1 compound can be found in patent US9539256B2 (THE BOARD OF REGENTS OF THE UNIVERSITY OF TEXAS SYSTEM, priority 2012, dated 2017).

The term IC50 denotes the concentration that inhibits the measured activity by half.

The target in the assay is T1, EPAC2 (Mus musculus, UniProt Q9EQZ6).
T1 sequence (Q9EQZ6 1-1011): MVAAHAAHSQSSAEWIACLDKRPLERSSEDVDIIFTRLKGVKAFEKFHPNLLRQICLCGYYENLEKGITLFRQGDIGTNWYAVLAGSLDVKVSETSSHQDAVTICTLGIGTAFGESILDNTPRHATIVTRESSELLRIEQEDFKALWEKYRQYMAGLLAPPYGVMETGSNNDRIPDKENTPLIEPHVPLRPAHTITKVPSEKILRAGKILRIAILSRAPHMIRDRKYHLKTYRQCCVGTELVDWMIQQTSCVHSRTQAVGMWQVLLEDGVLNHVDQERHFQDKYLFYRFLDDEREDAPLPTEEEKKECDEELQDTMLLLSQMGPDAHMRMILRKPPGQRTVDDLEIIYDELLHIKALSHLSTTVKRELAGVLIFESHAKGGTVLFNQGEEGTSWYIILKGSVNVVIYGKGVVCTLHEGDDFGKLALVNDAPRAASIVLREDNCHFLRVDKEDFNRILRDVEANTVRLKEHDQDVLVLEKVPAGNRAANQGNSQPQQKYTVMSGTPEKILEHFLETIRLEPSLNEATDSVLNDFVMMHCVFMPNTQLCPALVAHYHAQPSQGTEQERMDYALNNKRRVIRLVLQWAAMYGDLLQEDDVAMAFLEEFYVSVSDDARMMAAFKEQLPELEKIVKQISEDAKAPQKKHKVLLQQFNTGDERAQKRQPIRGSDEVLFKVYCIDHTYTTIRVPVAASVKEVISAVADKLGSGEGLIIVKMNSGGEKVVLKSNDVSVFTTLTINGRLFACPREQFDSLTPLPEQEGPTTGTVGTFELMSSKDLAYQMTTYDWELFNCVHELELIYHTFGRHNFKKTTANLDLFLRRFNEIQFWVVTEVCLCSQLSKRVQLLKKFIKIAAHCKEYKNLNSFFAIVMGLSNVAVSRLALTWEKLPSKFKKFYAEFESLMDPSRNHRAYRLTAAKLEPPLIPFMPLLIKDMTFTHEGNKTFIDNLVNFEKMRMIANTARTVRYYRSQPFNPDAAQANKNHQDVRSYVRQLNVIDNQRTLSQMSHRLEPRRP
Put plainly: 8-NBD-cAMP competition binding to EPAC2. Conditions: competing with 8-NBD-cAMP in binding EPAC2; read-out: Apparent IC50.

With `Cc1ccc(S(=O)(=O)c2c(C)cc(C)cc2C)cc1` [ESI-05], the IC50 was 480 ± 30 nM.
